Our source for the IC50 values is patent US11618753B2 (priority 2018, dated 2023).

By UniProt entry, the sequences of proteins in these tests, tags left out. Where a name states a change or a piece, a line headed by the entry shows the natural chain unless it says otherwise.
UniProt O00329: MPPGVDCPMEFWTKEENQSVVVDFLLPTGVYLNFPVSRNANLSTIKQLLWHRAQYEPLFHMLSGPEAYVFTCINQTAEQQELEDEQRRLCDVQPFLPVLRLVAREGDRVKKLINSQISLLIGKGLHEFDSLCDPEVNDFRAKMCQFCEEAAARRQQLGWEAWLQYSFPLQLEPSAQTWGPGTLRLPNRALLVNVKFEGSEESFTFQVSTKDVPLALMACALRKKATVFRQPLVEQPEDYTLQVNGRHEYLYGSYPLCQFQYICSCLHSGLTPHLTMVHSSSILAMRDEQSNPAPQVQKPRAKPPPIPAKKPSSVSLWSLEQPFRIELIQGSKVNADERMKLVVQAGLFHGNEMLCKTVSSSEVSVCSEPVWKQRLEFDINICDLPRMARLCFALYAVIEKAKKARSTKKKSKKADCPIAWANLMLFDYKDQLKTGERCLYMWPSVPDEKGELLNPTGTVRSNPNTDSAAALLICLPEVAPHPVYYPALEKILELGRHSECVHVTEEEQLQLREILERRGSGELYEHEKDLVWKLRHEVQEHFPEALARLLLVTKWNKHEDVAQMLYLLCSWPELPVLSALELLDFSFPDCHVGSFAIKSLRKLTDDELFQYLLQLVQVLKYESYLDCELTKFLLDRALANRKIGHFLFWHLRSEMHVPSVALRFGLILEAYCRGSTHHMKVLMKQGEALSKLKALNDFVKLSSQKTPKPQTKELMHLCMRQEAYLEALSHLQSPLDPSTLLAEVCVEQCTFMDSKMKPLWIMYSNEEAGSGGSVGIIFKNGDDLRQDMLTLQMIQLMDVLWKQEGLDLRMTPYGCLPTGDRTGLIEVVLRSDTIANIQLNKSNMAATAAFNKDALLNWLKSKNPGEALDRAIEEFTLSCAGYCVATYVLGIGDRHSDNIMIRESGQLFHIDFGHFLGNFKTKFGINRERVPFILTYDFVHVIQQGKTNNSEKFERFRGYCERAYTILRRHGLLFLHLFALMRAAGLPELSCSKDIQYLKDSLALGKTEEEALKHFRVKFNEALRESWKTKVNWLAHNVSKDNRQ

pIC50: −log10 of the molar value. Some results are limits rather than exact numbers.

The target of this test is GST-tagged PIK3Cδ in complex with PIK3R1 (Homo sapiens (Human), UniProt O00329). Nature of the test: biochemical.
For orientation: pIC50 means the negative decadic logarithm of the IC50, by convention in mol/L. Lower therefore signals a high IC50. The molecule `C[C@@](O)(C(=O)N1C[C@H](F)[C@H](NC(=O)c2cc(-c3cc(C(F)(F)F)c4c(N)ncnn34)cc(F)c2F)C1)C(F)(F)F` [Example 1332, 5-[4-amino-5-(trifluoromethyl)pyrrolo-[2,1-f][1,2,4]triazin-7-yl]-2,3-difluoro-N-[(3R,4S)-4-fluoro-1-[(2R)-3,3,3-trifluoro-2-hydroxy-2-methyl-propanoyl]pyrrolidin-3-yl]benzamide] showed a pIC50 of 6.89.

For `CCc1c(F)cc(-c2cc(C(F)(F)F)c3c(N)ncnn23)cc1C(=O)N[C@@H]1CN(C(=O)C2CC(F)(F)C2)C[C@@H]1F` [Example 1338, 5-[4-amino-5-(trifluoromethyl)pyrrolo-[2,1-f][1,2,4]triazin-7-yl]-N-[(3R,4S)-1-(3,3-difluorocyclobutanecarbonyl)-4-fluoropyrrolidin-3-yl]-2-ethyl-3-fluorobenzamide], the pIC50 was 6.49. Molecule `COc1ncc(-c2cc(C(F)(F)F)c3c(N)ncnn23)cc1C(=O)Nc1ncn(Cc2ccccc2)n1` [Example 1344, 5-[4-amino-5-(trifluoromethyl)pyrrolo[2,1-f][1,2,4]triazin-7-yl]-N-(1-benzyl-1H-1,2,4-triazol-3-yl)-2-methoxypyridine-3-carboxamide] showed a negative logarithm of the IC50 (pIC50) of less than 4.82.

In turn, `COc1ncc(-c2cc(C(F)(F)F)c3c(N)ncnn23)cc1C(=O)N[C@@H]1CN(S(=O)(=O)C2CCCCC2)C[C@@H]1F` [Example 1462, 5-[4-amino-5-(trifluoromethyl)pyrrolo[2,1-f][1,2,4]triazin-7-yl]-N-[(3R,4S)-1-(cyclohexanesulfonyl)-4-fluoropyrrolidin-3-yl]-2-methoxypyridine-3-carboxamide] showed a negative-log IC50 (pIC50) of less than 4.82. In the case of `CCOC(=O)N1C[C@H](F)[C@H](NC(=O)c2cc(-c3cc(CN4CCC(F)(F)CC4)c4c(N)ncnn34)cnc2OC)C1` [Example 1500, ethyl (3R,4S)-3-(5-{4-amino-5-[(4,4-difluoropiperidin-1-yl)methyl]pyrrolo[2,1-f][1,2,4]triazin-7-yl}-2-methoxypyridine-3-amido)-4-fluoropyrrolidine-1-carboxylate] it was less than 4.82. The molecule `COc1ncc(-c2cc(CN3CCC(F)(F)CC3)c3c(N)ncnn23)cc1C(=O)N[C@@H]1CN(C(=O)OC(C)CC(F)(F)F)C[C@@H]1F` (stereo partly drawn) [Example 1506, 4,4,4-trifluorobutan-2-yl (3R,4S)-3-(5-{4-amino-5-[(4,4-difluoropiperidin-1-yl)methyl]pyrrolo[2,1-f][1,2,4]triazin-7-yl}-2-methoxypyridine-3-amido)-4-fluoropyrrolidine-1-carboxylate] showed a pIC50 of less than 4.82. In the case of `COc1ncc(-c2cc(CN3CCC(F)(F)CC3)c3c(N)ncnn23)cc1C(=O)N[C@@H]1CN(C(=O)OC2CCC2)C[C@@H]1F` [Example 1509, cyclobutyl (3R,4S)-3-(5-{4-amino-5-[(4,4-difluoropiperidin-1-yl)methyl]pyrrolo[2,1-f][1,2,4]triazin-7-yl}-2-methoxypyridine-3-amido)-4-fluoropyrrolidine-1-carboxylate] it was less than 4.82; in that of `COc1ncc(-c2cc(CN3CCC(F)(F)CC3)c3c(N)ncnn23)cc1C(=O)N[C@@H]1CN(C(=O)OCC2(C(F)(F)F)CC2)C[C@@H]1F` [Example 1510, [1-(trifluoromethyl)cyclopropyl]methyl (3R,4S)-3-(5-{4-amino-5-[(4,4-difluoropiperidin-1-yl)methyl]pyrrolo[2,1-f][1,2,4]triazin-7-yl}-2-methoxypyridine-3-amido)-4-fluoropyrrolidine-1-carboxylate], less than 4.82; in that of `COc1ncc(-c2cc(CN3CCC(F)(F)CC3)c3c(N)ncnn23)cc1C(=O)N[C@@H]1CN(C(=O)OCC(C)(C)C)C[C@@H]1F` [Example 1514, 2,2-dimethylpropyl (3R,4S)-3-(5-{4-amino-5-[(4,4-difluoropiperidin-1-yl)methyl]pyrrolo[2,1-f][1,2,4]triazin-7-yl}-2-methoxypyridine-3-amido)-4-fluoropyrrolidine-1-carboxylate], less than 4.82.

The molecule `COc1ncc(-c2cc(CN3CCC(F)(F)CC3)c3c(N)ncnn23)cc1C(=O)N[C@@H]1CN(C(=O)O[C@H](C)C2CC2)C[C@@H]1F` [Example 1515, (1R)-1-cyclopropylethyl (3R,4S)-3-(5-{4-amino-5-[(4,4-difluoropiperidin-1-yl)methyl]pyrrolo[2,1-f][1,2,4]triazin-7-yl}-2-methoxypyridine-3-amido)-4-fluoropyrrolidine-1-carboxylate] gave a pIC50 of less than 4.82. Turning to `COc1ncc(-c2cc(CN3CCC(F)(F)CC3)c3c(N)ncnn23)cc1C(=O)N[C@@H]1CN(C(=O)OCCCF)C[C@@H]1F` [Example 1516, 3-fluoropropyl (3R,4S)-3-(5-{4-amino-5-[(4,4-difluoropiperidin-1-yl)methyl]pyrrolo[2,1-f][1,2,4]triazin-7-yl}-2-methoxypyridine-3-amido)-4-fluoropyrrolidine-1-carboxylate], the pIC50 is less than 4.82.

Molecule `COc1ncc(-c2cc(CN3CCC(F)(F)CC3)c3c(N)ncnn23)cc1C(=O)N[C@@H]1CN(C(=O)OCC2CC2)C[C@@H]1F` [Example 1517, cyclopropylmethyl (3R,4S)-3-(5-{4-amino-5-[(4,4-difluoropiperidin-1-yl)methyl]pyrrolo[2,1-f][1,2,4]triazin-7-yl}-2-methoxypyridine-3-amido)-4-fluoropyrrolidine-1-carboxylate] gave a pIC50 of less than 4.82.

`COc1ncc(-c2cc(CN3CCC(F)(F)CC3)c3c(N)ncnn23)cc1C(=O)N[C@@H]1CN(C(=O)OCC(C)(F)F)C[C@@H]1F` [Example 1518, 2,2-difluoropropyl (3R,4S)-3-(5-{4-amino-5-[(4,4-difluoropiperidin-1-yl)methyl]pyrrolo[2,1-f][1,2,4]triazin-7-yl}-2-methoxypyridine-3-amido)-4-fluoropyrrolidine-1-carboxylate] showed a pIC50 of less than 4.82. For the molecule `COc1ncc(-c2cc(CN3CCC(F)(F)CC3)c3c(N)ncnn23)cc1C(=O)N[C@@H]1CN(C(=O)OC2(C)CC2)C[C@@H]1F` [Example 1519, 1-methylcyclopropyl (3R,4S)-3-(5-{4-amino-5-[(4,4-difluoropiperidin-1-yl)methyl]pyrrolo[2,1-f][1,2,4]triazin-7-yl}-2-methoxypyridine-3-amido)-4-fluoropyrrolidine-1-carboxylate], the pIC50 was less than 4.82. `COc1ncc(-c2cc(CN3CCC(F)(F)CC3)c3c(N)ncnn23)cc1C(=O)N[C@@H]1CN(C(=O)OCC(F)(F)C(F)F)C[C@@H]1F` [Example 1520, 2,2,3,3-tetrafluoropropyl (3R,4S)-3-(5-{4-amino-5-[(4,4-difluoropiperidin-1-yl)methyl]pyrrolo[2,1-f][1,2,4]triazin-7-yl}-2-methoxypyridine-3-amido)-4-fluoropyrrolidine-1-carboxylate] showed a negative-log IC50 (pIC50) of less than 4.82. The molecule `CCCOC(=O)N1C[C@H](F)[C@H](NC(=O)c2cc(-c3cc(CN4CCC(F)(F)CC4)c4c(N)ncnn34)cnc2OC)C1` [Example 1535, propyl (3R,4S)-3-(5-{4-amino-5-[(4,4-difluoropiperidin-1-yl)methyl]pyrrolo[2,1-f][1,2,4]triazin-7-yl}-2-methoxypyridine-3-amido)-4-fluoropyrrolidine-1-carboxylate] showed a negative-log IC50 (pIC50) of less than 4.82. Turning to `COc1ncc(-c2cc(CN3CCC(F)(F)CC3)c3c(N)ncnn23)cc1C(=O)N[C@@H]1CN(S(=O)(=O)CCC(F)(F)F)C[C@@H]1F` [Example 1541, 5-{4-amino-5-[(4,4-difluoropiperidin-1-yl)methyl]pyrrolo[2,1-f][1,2,4]triazin-7-yl}-N-[(3R,4S)-4-fluoro-1-(3,3,3-trifluoropropanesulfonyl)pyrrolidin-3-yl]-2-methoxypyridine-3-carboxamide], the pIC50 is less than 4.82. In the case of `COc1ncc(-c2cc(CN3CCC(F)(F)CC3)c3c(N)ncnn23)cc1C(=O)N[C@@H]1CN(S(=O)(=O)CC(F)(F)F)C[C@@H]1F` [Example 1542, 5-{4-amino-5-[(4,4-difluoropiperidin-1-yl)methyl]pyrrolo[2,1-f][1,2,4]triazin-7-yl}-N-[(3R,4S)-4-fluoro-1-(2,2,2-trifluoroethanesulfonyl)pyrrolidin-3-yl]-2-methoxypyridine-3-carboxamide] it was less than 4.82. To `[2H]C([2H])([2H])Oc1ncc(-c2cc(CC3CC(F)(F)C3)c3c(N)ncnn23)cc1C(=O)N[C@@H]1CN(C(=O)OCC(F)(F)F)C[C@@H]1F` [Example 1548, 2,2,2-Trifluoroethyl (3R,4S)-3-(5-(4-amino-5-((3,3-difluorocyclobutyl)methyl)pyrrolo[2,1-f][1,2,4]triazin-7-yl)-2-(methoxy-d3)nicotinamido)-4-fluoropyrrolidine-1-carboxylate] belongs less than 4.82. For the molecule `COc1ncc(-c2cc(CN3CCC(F)(F)CC3)c3c(N)ncnn23)cc1C(=O)N[C@@H]1CN(C(=O)OCC(F)(F)F)C[C@@H]1F` [Example 1553, 2,2,2-trifluoroethyl (3R,4S)-3-(5-{4-amino-5-[(4,4-difluoropiperidin-1-yl)methyl]pyrrolo[2,1-f][1,2,4]triazin-7-yl}-2-methoxypyridine-3-amido)-4-fluoropyrrolidine-1-carboxylate], the negative logarithm of the IC50 (pIC50) was less than 4.82. For `COc1ncc(-c2cc(CN3CCC(F)(F)CC3)c3c(N)ncnn23)cc1C(=O)N[C@@H]1CN(C(=O)[C@H]2CC2(F)F)C[C@@H]1F` [Example 1560, 5-{4-amino-5-[(4,4-difluoropiperidin-1-yl)methyl]pyrrolo[2,1-f][1,2,4]triazin-7-yl}-N-[(3R,4S)-1-[(1R)-2,2-difluorocyclopropanecarbonyl]-4-fluoropyrrolidin-3-yl]-2-methoxypyridine-3-carboxamide], the pIC50 is less than 4.82. In the case of `Cc1c(F)cc(-c2cc(CN3CC(F)(F)C3)c3c(N)ncnn23)cc1C(=O)N[C@@H]1CN(C(=O)C2CC(F)(F)C2)C[C@@H]1F` [Example 1562, 5-{4-amino-5-[(3,3-difluoroazetidin-1-yl)methyl]pyrrolo[2,1-f][1,2,4]triazin-7-yl}-N-[(3R,4S)-1-(3,3-difluorocyclobutanecarbonyl)-4-fluoropyrrolidin-3-yl]-3-fluoro-2-methylbenzamide], the negative logarithm of the IC50 (pIC50) was 5.29.
